Measured values reported in US10081629B2, “Amide derivatives and pharmaceutically acceptable salts thereof, preparation method thereof and medicinal application thereof” (Shanghai Hengrui Pharmaceutical Co., Ltd., priority 2014, dated 2018).

Chains of the proteins cited; added tags and fusions are not shown. Lines headed by an entry give the natural chain unless they say otherwise; changes in a name come on top.
UniProt O14684: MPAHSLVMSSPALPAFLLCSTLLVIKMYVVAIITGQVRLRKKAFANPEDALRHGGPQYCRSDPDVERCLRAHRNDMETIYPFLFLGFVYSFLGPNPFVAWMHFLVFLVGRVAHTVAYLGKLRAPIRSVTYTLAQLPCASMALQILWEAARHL

Columns and labels:
human mPGES1 = human mPGES1 (Homo sapiens (Human), UniProt O14684); assay: Inhibition activity for human mPGES1 (enzyme assay, PGE2 HTRF); assay type: biochemical; conditions: membrane protein from HEK-293 F transfected with human mPGES1
Procedure: The method described here is used for determining the inhibition activity of the present compounds for human mPGES1.
• 1. PGE2 Assay kit (Cisbio, #62P2APEB) • 2. Prostaglandin H2 (Sigma, #P7867-1MG) • 3. FlexStation3 microplate reader. II. Experimental Procedure • 1. Obtaining the membrane proteins of mPGES1 enzyme
The cell density of HEK-293 F was grown to 6×10^5 per milliliter and was transferred with the plasmid containing human mPGES1 gene by transfection reagent PEI the next day. The cells were continuously cultured for 72 hours at 37° C. with shaking. After centrifuging at 1100 g for 5 minutes, the cells were harvested. After ultrasonication in an ice bath and centrifugation at 5000 g for 10 minutes, the supernatant was obtained. The supernatant was centrifuged at 100000 g for 1 hour to obtain a precipitate. The precipitate was resuspended with storage buffer containing 10% glycerinum, subpackaged and frozen rapidly under liquid nitrogen, and stored at −80° C. • 2. mPGES1 enzyme assay
mPGES1 was diluted with assay buffer and added into plate at 49 μL/well supplemented with 1 μL of compound (the final concentration of each compound at seven gradient concentrations was 10000 nM, 1000 nM, 100 nM, 10 nM, 1 nM, 0.1 nM and 0.01 nM). Each well was added with 3.8 μL of 20 μg/mL PGH precooled on ice after shaking for 30 seconds and incubated for 7 minutes on ice. Then, each well was added with 53.8 μL of 6 mg/mL SnCl2 to quench the reaction. The sample was diluted with dilute buffer at 1:400. 10 μl of diluted sample, 5 μL PGE2-d2 and 5 μL anti-PGE2 Cryptate were added to a black 384-well plate, and incubated at 4° C. overnight. HTRF was determined using Flexstation, and the IC50 of the compounds was obtained by data processing software.
The inhibition activity of the present compounds on mPGES1 was tested by the assay described above.

[1] = test system: secretion of PGE2 by A549 cells stimulated with IL-1β; assay: Inhibition of the secretion of PGE2 by A549 cells stimulated with IL-1β; assay type: cell-based; conditions: Homo sapiens, A549, 24 h, IL-1β 0.2 ng/mL
Description: The method described here was used for determining the inhibition activity of the present compounds on the secretion of PGE2 by A549 cells stimulated with IL-1β.
• 1. PGE2 Assay kit (Cisbio, #62P2APEB) • 2. IL-1β (Peprotech, # AF-200-01B) • 3. Cell line: A549 (ATCC: CCL-185) • 4. FlexStation3 microplate reader. II. Experimental Procedure
On the first day, A549 cells were inoculated in a 96-well plate at 40000/well. On the second day, the culture medium in the 96-well plate was removed and then added with 90 μL of compound diluted with culture medium (the concentration of each compound at seven gradient concentrations was 11111 nM, […], 1.11 nM, 0.11 nM and 0.011 nM). The cells were incubated for 30 minutes at 37° C. in an incubator, and then added with IL-1β to a final concentration of 0.2 ng/mL. Then, the cells were incubated for another 24 hours at 37° C. On the third day, 10 μl of supernatant, 5 μL of PGE2-d2 and 5 μL of anti-PGE2 Cryptate were added into a black 384-well plate, and then incubated at 4° C. overnight. HTRF was determined using Flexstation, and the IC50 of the compounds was obtained by data processing software.
The inhibition activity of the present compounds on the secretion of PGE2 by A549 cells stimulated with IL-1β was determined by the assay described above.

With `CC(C)(F)C(=O)NCc1cnc(C(F)F)c(C(=O)Nc2ccc3c(c2)cc(-c2ccc(C(F)(F)F)cc2)n3C2CCOC2)c1` (stereo not shown) [Example 30, 2-(Difluoromethyl)-5-(((2-fluoro-2-methyl-propanoyl)amino)methyl)-N-(1-(tetrahydrofuran-3-yl)-2-(4-(trifluoromethyl)phenyl)-1H-indol-5-yl)nicotinamide] the IC50 (human mPGES1) was 2.99 nM and 1.73 nM.
`CC(C)(F)C(=O)NCc1cnc(C(F)F)c(C(=O)Nc2ccc3c(c2)cc(-c2ccc(C(F)(F)F)cc2)n3[C@H]2CCOC2)c1` [Example 31, (S)-2-(Difluoromethyl)-5-(((2-fluoro-2-methyl-propanoyl)amino)methyl)-N-(1-(tetrahydrofuran-3-yl)-2-(4-(trifluoromethyl)phenyl)-1H-indol-5-yl)nicotinamide] was tested, and the IC50 (human mPGES1) was 2.95 nM and 4.12 nM.
Compound `CC(C)(F)C(=O)NCc1cnc(C(F)F)c(C(=O)Nc2ccc3c(c2)cc(-c2ccc(C(F)(F)F)cc2)n3[C@@H]2CCOC2)c1` [Example 32, (R)-2-(Difluoromethyl)-5-(((2-fluoro-2-methyl-propanoyl)amino)methyl)-N-(1-(tetrahydrofuran-3-yl)-2-(4-(trifluoromethyl)phenyl)-1H-indol-5-yl)nicotinamide] has an IC50 [1] of 18.8 nM and an IC50 (human mPGES1) of 2.24 nM.

Several values for one entry are separate records, joined by “and”; a condition that tells them apart may be missing. Equal entries are not always repeated.
